Data taken from ChEMBL document CHEMBL1126447 (Bioorg Med Chem Lett, 1992).

Sequences of proteins named here, by UniProt entry; tags and fusion partners are left off. A change or cut given only in a name is not applied to a line headed by its entry.
UniProt P22303: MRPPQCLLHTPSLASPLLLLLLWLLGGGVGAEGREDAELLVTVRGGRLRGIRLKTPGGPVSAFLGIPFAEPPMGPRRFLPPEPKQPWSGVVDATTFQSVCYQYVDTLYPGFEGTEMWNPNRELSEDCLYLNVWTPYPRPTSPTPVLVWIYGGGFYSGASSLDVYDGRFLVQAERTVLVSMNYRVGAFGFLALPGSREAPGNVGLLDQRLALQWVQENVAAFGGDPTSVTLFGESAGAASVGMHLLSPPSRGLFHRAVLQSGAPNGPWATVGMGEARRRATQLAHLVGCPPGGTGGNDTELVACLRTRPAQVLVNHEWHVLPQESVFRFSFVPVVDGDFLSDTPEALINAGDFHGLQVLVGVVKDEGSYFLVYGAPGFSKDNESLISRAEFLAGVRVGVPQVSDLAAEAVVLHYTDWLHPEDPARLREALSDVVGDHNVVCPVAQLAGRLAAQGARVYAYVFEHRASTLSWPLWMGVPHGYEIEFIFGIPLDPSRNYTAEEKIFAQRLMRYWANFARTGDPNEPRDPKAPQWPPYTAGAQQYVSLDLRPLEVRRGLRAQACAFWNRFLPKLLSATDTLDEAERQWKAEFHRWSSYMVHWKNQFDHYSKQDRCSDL
UniProt O42275: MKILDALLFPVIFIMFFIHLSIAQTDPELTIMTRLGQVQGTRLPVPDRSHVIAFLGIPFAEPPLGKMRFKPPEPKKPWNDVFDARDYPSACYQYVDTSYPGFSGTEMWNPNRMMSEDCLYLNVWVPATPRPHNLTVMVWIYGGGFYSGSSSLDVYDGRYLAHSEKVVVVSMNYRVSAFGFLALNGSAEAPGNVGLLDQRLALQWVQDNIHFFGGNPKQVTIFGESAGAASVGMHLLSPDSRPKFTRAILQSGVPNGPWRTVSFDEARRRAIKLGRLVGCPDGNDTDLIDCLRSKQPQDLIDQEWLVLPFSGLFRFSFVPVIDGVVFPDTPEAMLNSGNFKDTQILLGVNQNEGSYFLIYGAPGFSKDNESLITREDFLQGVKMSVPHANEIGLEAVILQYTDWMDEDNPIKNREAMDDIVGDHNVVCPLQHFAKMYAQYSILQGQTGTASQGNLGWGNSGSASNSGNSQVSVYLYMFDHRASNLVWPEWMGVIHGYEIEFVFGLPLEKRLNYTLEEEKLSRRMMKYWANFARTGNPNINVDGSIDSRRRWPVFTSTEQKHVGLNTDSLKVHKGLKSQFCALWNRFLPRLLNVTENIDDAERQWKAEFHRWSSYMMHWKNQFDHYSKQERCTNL

Key:
Acetylcholinesterase [1] = molecular target: Acetylcholinesterase (Homo sapiens, UniProt P22303)
Acetylcholinesterase [2] = molecular target: Acetylcholinesterase (Electrophorus electricus, UniProt O42275)

SMILES	IC50 (Acetylcholinesterase [1]) [nM]	IC50 (Acetylcholinesterase [2]) [nM]
Nc1c2c(nc3ccccc13)C1CCC2C1 (configuration not stated)	31.5	
CNC(=O)Oc1ccc2c(c1)[C@]1(C)CCN(C)[C@@H]1N2C [PHYSOSTIGMINE]		275
